Data: BindingDB's records for PubMed 10347254 (R. W. Johnson Pharmaceutical Research Institute, 1999)

By UniProt entry, the sequences of proteins in these tests, tags left out. Where a name states a change or a piece, a line headed by the entry shows the natural chain unless it says otherwise.
UniProt Q9Y5N1: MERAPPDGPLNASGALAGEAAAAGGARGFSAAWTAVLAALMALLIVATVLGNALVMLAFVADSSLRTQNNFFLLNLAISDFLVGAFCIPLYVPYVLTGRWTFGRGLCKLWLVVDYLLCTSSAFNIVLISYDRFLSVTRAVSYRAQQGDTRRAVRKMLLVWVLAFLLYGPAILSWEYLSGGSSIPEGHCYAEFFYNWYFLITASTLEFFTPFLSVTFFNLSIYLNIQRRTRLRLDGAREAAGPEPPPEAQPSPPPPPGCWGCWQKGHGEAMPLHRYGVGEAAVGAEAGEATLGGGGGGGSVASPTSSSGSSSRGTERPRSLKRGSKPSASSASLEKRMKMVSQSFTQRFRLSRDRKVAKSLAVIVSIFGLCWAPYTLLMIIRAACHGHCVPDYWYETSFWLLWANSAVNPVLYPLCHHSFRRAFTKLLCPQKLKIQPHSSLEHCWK

Target: Histamine H3 receptor (Homo sapiens, UniProt Q9Y5N1)

Structure (SMILES): NC(=NCc1ccc(Cl)cc1)SCCCc1cnc[nH]1 [VUF 9153]
- Ki: > 10 µM
